# AlphaSeq binding of Ab-91 heavy chain variants to a spike HR2 peptide

The target is the same throughout: PDVDLGDISGINAS, from the HR2 region of SARS-CoV-2 spike.

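The parent was found by panning a naive human phage display library on the peptide. In library AAYL51, one, two or three CDR residues were substituted; doubles and triples were drawn at random. The assay is AlphaSeq: two haploid yeast populations carry antibody and antigen on their surface. The frequency of each diploid, read from paired DNA barcodes, reflects how well the two displayed proteins bind. Read counts were normalised to the haploid input and turned into Kd by a linear fit to BCL2-family pairs of known affinity, for each replicate. Mating was done three times.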

Parent: Ab-91, a human scFv built as VL, a (GGGGS)3 linker, VH. Only the CDRs of the heavy chain vary.
VL: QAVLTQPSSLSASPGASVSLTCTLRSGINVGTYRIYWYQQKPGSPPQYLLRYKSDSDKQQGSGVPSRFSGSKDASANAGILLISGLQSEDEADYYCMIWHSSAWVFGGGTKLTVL
VH: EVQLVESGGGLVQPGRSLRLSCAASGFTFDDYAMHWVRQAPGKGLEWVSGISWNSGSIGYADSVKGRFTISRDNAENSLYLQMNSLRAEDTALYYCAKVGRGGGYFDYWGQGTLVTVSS

The parent's heavy chain CDRs are GFTFDDYAMH, GISWNSGSIGYADSVK, VGRGGGYFDY; each variant's own CDRs replace them letter for letter.
Every variant below is changed at I51 of the VH (sequential numbering).
Affinities are written as log10 Kd with Kd in nM; a lower number is a better binder.
The mean shown is taken over the replicates in which the pair was detected.
"ND" marks a missing value. The strain was present, yet no cells mated with the target were sequenced in that replicate, which points to weak or no binding.
As a blank, each scFv also met three strains without target: over library AAYL51, 21% of these pairings were detected, typically at 4.54 and seldom below 3.26. For each scFv, signals with the empty controls are counted beside the result.

The variant GFTFDDYAMH, GWSWNSGSIGYADSVK, VGRGGGYEDY gave 3.61, ND, ND (controls 1 of 9).
The variant AFTFDDYAMH, GGSWNSGCIGYADSVK, VGRGGGYFDY gave 4.59, ND, 4.37 (mean 4.48; controls 2 of 9).
The variant LFTFDDYAMH, GASWNSGSSGYADSVK, VGRGGGYFDY gave 5.13, 5.07, ND (mean 5.10; controls 5 of 9).
The variant GFTFDDYAMH, GRSWNSGDIGYADSVK, VGRGGCYFDY gave ND, ND, ND (controls 0 of 9).
The variant GFTFDDYAMH, GWSWNSGSMGYADSIK, VGRGGGYFDY gave ND, 5.35, ND (controls 3 of 9).
The variant GMTFDDYEMH, GSSWNSGSIGYADSVK, VGRGGGYFDY gave ND, 6.18, 5.13 (mean 5.66; controls 3 of 9).
The variant GFTFDDYAMH, GASGNSGSIGYATSVK, VGRGGGYFDY gave ND, ND, ND (controls 0 of 9).
The variant GFIFDDYAMH, GSSRNSGSIGYADSVK, VGRGGGYFDY gave 5.45, 4.62, ND (mean 5.04; controls 5 of 9).
The variant GFTFDDYAMH, GLSWNSGSIGYADSVK, VGRSGGYFDQ gave ND, ND, ND (controls 1 of 9).
The variant GFTFRMYAMH, GPSWNSGSIGYADSVK, VGRGGGYFDY gave ND, ND, 4.63 (controls 3 of 9).
The variant GFTFDDYMML, GWSWNSGSIGYADSVK, VGRGGGYFDY gave ND, ND, ND (controls 0 of 9).
The variant GITFDDYAMH, GMSWNSGSIGYADSVK, VGRRGGYFDY gave ND, ND, ND (controls 0 of 9).
The variant GFKFDDYAMH, RHSWNSGSIGYADSVK, VGRGGGYFDY gave 5.05, ND, ND (controls 0 of 9).
The variant GFTFDDYAMH, GRSWNSGSIAYADSVK, VGRGGGYFDY gave ND, ND, ND (controls 0 of 9).
The variant GFTFDDYAMH, GHSWNSGSIVYADSVM, VGRGGGYFDY gave 4.17, ND, ND (controls 1 of 9).
The variant GFTFDYYAMH, GMSWNSGSIGYADSVK, VHRGGGYFDY gave 4.31, ND, ND (controls 1 of 9).
The variant GFTFDDYAMH, GPSWNSGSIGYADSIK, VGRGGGYFDY gave ND, ND, ND (controls 3 of 9).
The variant GFTFDDYAMH, HMSWNSGSIGYADLVK, VGRGGGYFDY gave ND, ND, ND (controls 0 of 9).
The variant GFTFDDYAMH, GTSWNSGSIQYADSVK, VGRGGGRFDY gave 3.95, 5.21, ND (mean 4.58; controls 1 of 9).
The variant EFTFDDYAMH, GVSWNSGSIGYAQSVK, VGRGGGYFDY gave ND, ND, ND (controls 0 of 9).
The variant GFTFDDYAMP, GDSWNSGSIGYADPVK, VGRGGGYFDY gave ND, ND, ND (controls 3 of 9).
The variant GFTFDDYAMH, GSSLNSGSIGYAVSVK, VGRGGGYFDY gave ND, ND, ND (controls 0 of 9).
The variant GFTFDDYQMH, GMSWNSGSIGYADSVY, VGRGGGYFDY gave ND, 2.15, ND (controls 1 of 9).
The variant GFTIDDYAMH, GMSWNSGSIGYADSVK, VGRGWGYFDY gave 3.90, 4.67, 4.68 (mean 4.42; controls 5 of 9).
The variant GFTFDDYAMH, GYSWNSGSIGYAHSVK, VGRGGGYNDY gave ND, ND, ND (controls 0 of 9).
The variant GFTFDDYMMM, GGSWNSGSIGYADSVK, VGRGGGYFDY gave ND, ND, ND (controls 1 of 9).
The variant GFTFDDYAMP, GLSWNSGSIGYSDSVK, VGRGGGYFDY gave ND, 4.49, ND (controls 2 of 9).
The variant GFTFDDYAMH, GCSWNSGSIGYADSVK, EARGGGYFDY gave ND, ND, ND (controls 0 of 9).
The variant GFTFDDYAMH, GCSWNYGSIGYADSVK, VGRGGGYFDY gave 3.68, 3.67, 4.99 (mean 4.11; controls 2 of 9).
The variant GITFDDYAMH, GGSWNSGSIGYADSVK, DGRGGGYFDY gave ND, ND, ND (controls 0 of 9).
The variant GFTFDDYAMH, GKSWNSGSIGLEDSVK, VGRGGGYFDY gave ND, ND, ND (controls 0 of 9).
The variant GFNFDDYAMH, GASLNSGSIGYADSVK, VGRGGGYFDY gave ND, ND, 3.81 (controls 0 of 9).
The variant GFTFHDYAMH, IHSWNSGSIGYADSVK, VGRGGGYFDY gave ND, ND, ND (controls 1 of 9).
The variant GFTFDDYAMH, GWSWNSGSIGYADSVK, VGRGGGYFDY gave ND, ND, ND (controls 0 of 9).
The variant GFTFDDYAMH, GMSWNSGSIGYADMVK, VGRGGYYFDY gave 2.53, 3.78, 3.26 (mean 3.19; controls 3 of 9).
The variant GFTFADYAMH, GWSWNSGSIGYADSVK, VGRGGIYFDY gave ND, ND, ND (controls 2 of 9).
The variant GFTFDDYAMH, GCSWNSNSIGKADSVK, VGRGGGYFDY gave ND, ND, ND (controls 1 of 9).
The variant GFTFDDYAMH, GSSWNSGGIGYADSVK, VGRGGGYFNY gave ND, ND, ND (controls 1 of 9).
The variant GFTFDDYAMH, GTSWNSGSIVYADSVK, IGRGGGYFDY gave 6.04, 3.70, ND (mean 4.87; controls 5 of 9).

Extract of 5 entries:

Variant GFTFDDYQMH, GMSWNSGSIGYADSVY, VGRGGGYFDY showed ND, 2.15, ND (controls 1 of 9).
Variant GFTFDDYAMH, GHSWNSGSIVYADSVM, VGRGGGYFDY showed 4.17, ND, ND (controls 1 of 9).
Variant GFTFDDYAMH, GCSWNYGSIGYADSVK, VGRGGGYFDY showed 3.68, 3.67, 4.99 (mean 4.11; controls 2 of 9).
Variant LFTFDDYAMH, GASWNSGSSGYADSVK, VGRGGGYFDY showed 5.13, 5.07, ND (mean 5.10; controls 5 of 9).
Variant GFTFDDYAMH, GSSWNSGGIGYADSVK, VGRGGGYFNY showed ND, ND, ND (controls 1 of 9).

The measurements come from Engelhart et al. 2022 (doi:10.1038/s41597-022-01779-4) through the FLAb antibody collection.